# Data reported in paper PMC10838150 (Toxicology in vitro : an international journal published in …, 2021).
# Like-named read-outs stand apart in the source and are kept apart here.
# Experiments:
# PHHs = settings: 150 minutes, 50 μM BPAF or BPS
# MCF7 = settings: 50 μM BPAF or BPS
# HepG2 = settings: 50 μM BPAF or BPS
# HEK293 = settings: 50 μM BPAF or BPS
Substance,Phase II Metabolite Formation Rate (PHHs),"Phase II Metabolite Formation Rate (MCF7; MCF7, 150 minutes)","Phase II Metabolite Formation Rate (MCF7; MCF7, 24 hours)","Phase II Metabolite Formation Rate (HepG2; HepG2, 150 minutes)","Phase II Metabolite Formation Rate (HepG2; HepG2, 24 hours)","Phase II Metabolite Formation Rate (HEK293; HEK293, 150 minutes)","Phase II Metabolite Formation Rate (HEK293; HEK293, 24 hours)"
bisphenol S 2 sulfate conjugates [BPS 2S],-------------^1,-------------^1,-------------^1,-------------^1,-------------^1,–,–
bisphenol S glucuronide [BPS G],–,-------------^1,-------------^1,-------------^1,–,-------------^1,53.8 ± 6.89 Peak area/minute-million cells
